{"sequences": {"note": "Sequences of proteins named here, by UniProt entry; tags and fusion partners are left off. A change or cut given only in a name is not applied to a line headed by its entry. Residues count along the entry.", "UniProt P12368, 2-401": "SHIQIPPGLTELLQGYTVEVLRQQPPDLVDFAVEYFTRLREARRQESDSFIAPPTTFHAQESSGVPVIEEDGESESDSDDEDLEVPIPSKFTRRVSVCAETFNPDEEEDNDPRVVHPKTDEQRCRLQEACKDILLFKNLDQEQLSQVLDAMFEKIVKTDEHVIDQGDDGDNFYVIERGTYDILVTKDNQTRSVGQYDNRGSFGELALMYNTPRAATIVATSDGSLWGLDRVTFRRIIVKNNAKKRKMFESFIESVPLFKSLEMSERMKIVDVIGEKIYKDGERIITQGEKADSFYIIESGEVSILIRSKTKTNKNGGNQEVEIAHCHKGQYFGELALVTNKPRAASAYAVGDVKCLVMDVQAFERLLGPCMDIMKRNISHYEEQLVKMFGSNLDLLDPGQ", "UniProt Q6JP77": "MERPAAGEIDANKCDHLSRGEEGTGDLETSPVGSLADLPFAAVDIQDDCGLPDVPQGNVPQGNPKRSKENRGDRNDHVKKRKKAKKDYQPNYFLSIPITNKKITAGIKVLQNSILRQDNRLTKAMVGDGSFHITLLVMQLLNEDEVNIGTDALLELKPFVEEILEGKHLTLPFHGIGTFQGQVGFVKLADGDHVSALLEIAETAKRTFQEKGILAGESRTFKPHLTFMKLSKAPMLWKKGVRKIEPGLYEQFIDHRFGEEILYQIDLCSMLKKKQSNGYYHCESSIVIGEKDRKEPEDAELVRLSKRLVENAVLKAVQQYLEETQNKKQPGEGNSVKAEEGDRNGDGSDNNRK"}, "source": "patent US20090176773A1", "about": "“Non-Peptidic Inhibitors of AKAP/PKA Interaction” (FORSCHUNGSVERBUND BERLIN E.V., priority 2005, published 2009)", "target": "AKAP18delta-RIIalpha interaction (GST-AKAP18delta binding to plate-bound PKA-RIIalpha) (Rattus norvegicus, UniProt P12368+Q6JP77)", "assay": "ELISA for quantitative detection of protein-protein binding between PKA-RIIalpha and GST-AKAP18delta (library screening, validation, IC50)", "conditions": "substance 244 μM, control without substance = 100%", "description": "ELISA is a method wherein an antigen is detected with a specific antibody. Detection proceeds via an enzyme linked covalently with one of the binding partners, which enzyme catalyzes chromogen conversion.\nBecause one of the two binding partners is immobilized, removal of unbound antibodies or antigens is very easy. Detection proceeds via observing the intensity (I) of chemiluminescence using a photomultiplier in a special reading device (ELISA reader). The output of the measured values is in relative light units (RLU).\nIn the present case, the point was to investigate whether binding of one protein (PKA) to another (AKAP18delta-GST) would be inhibited by the presence of small organic molecules. A sandwich ELISA was therefore developed wherein the RIIalpha PKA subunit, to which AKAP proteins bind, was bound on 384-well microtiter plates (MTP).\nThe white color improves detection by reflection of the chemiluminescence being formed and simultaneously prevents illumination of neighboring wells. […] Subsequently, bound GST-AKAP18delta was quantified via antibodies and chemiluminescence. […]\nTo adapt the binding curves to the measured values (see results), the one-site binding model was used as a basis, which model applies to binding of GST-AKAP18delta to RIIalpha. […]\nThe measured values for IC50 calculation were adapted to the one-site competition model. […]"}
{"smiles": "COc1cc[n+](C(=O)N(C)C)cc1", "note": "[Compound 1075]", "values": [{"measurement": "Binding (in %): relative binding of GST-AKAP18delta to PKA-RIIalpha in the presence of each substance, based on a control", "result": 56.79, "unit": "%"}]}
